The test deals with T1, Collagenase ColG (Hathewaya histolytica, UniProt Q9X721).
T1 sequence (Q9X721 whole entry): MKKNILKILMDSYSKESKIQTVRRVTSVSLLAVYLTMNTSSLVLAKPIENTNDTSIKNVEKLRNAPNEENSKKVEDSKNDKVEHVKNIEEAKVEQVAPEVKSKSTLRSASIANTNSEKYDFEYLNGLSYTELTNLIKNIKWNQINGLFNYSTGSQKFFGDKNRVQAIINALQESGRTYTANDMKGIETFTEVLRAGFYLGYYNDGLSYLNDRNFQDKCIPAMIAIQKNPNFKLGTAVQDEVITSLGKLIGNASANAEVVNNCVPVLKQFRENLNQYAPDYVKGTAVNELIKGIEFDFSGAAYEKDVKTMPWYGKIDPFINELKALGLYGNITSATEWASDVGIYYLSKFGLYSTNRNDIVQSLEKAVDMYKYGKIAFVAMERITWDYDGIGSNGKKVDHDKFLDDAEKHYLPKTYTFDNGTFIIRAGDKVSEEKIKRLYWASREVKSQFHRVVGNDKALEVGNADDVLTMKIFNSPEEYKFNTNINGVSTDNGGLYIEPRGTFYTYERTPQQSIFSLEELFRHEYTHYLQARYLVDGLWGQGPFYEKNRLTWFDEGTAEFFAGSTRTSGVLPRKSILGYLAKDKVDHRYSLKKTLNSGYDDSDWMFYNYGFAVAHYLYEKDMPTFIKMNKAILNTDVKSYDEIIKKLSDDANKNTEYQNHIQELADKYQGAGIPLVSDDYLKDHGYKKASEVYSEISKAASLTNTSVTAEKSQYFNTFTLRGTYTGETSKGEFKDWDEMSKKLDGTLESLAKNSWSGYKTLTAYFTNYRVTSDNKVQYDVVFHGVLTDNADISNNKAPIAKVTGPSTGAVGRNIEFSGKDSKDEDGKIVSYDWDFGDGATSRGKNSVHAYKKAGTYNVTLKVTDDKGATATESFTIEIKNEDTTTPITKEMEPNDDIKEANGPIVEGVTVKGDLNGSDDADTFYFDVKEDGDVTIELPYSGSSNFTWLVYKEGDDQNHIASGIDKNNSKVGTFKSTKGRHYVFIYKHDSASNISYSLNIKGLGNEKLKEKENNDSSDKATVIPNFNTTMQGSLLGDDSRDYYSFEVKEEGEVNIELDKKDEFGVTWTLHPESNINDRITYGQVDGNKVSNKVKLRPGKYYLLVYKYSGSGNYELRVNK
Kind of test: ChC Enzyme Inhibition Assay. As to the method:
The rate of hydrolysis was determined from the change in absorbance at 324 nm using an extinction coefficient, 24700 M-1 cm-1 for FALGPA. Initial velocities were thus estimated using the direct linear plot-based procedure. The inhibition constant Ki was then determined by using Easson-Stedman plots and a linear regression program.

Take `CC(C(=O)NO)N(Cc1ccccc1Cl)S(C)(=O)=O` (configuration not stated) [2-{[(2-chlorophenyl)methyl](methane)sulfonamido}-N-hydroxypropanamide]: the Ki was determined as 92 nM.
As to `CC(C(=O)O)N(Cc1ccccc1Cl)S(C)(=O)=O` (configuration not stated) [2-{[(2-chlorophenyl)methyl](methane)sulfonamido}propanoic acid], the Ki (pH 7.5, 25 °C) amounted to 21000 nM.
Consider `CC(C(=O)NO)N(Cc1ccccc1Cl)C(=O)Nc1cccc2ccccc12` (configuration not stated) [2-{[(2-chlorophenyl)methyl](naphthalen-1-ylcarbamoyl)amino}-N-hydroxypropanamide], for which the Ki is 11 nM.
Molecule `CC(C(=O)O)N(Cc1ccccc1Cl)C(=O)Nc1cccc2ccccc12` (configuration not stated) [2-{[(2-chlorophenyl)methyl](naphthalen-1-ylcarbamoyl)amino}propanoic acid] showed a Ki of 5000 nM.
The same measure, in the same setting: under `CC(C(=O)NO)N(Cc1ccccc1Cl)S(=O)(=O)c1cccc2ccccc12` (configuration not stated) [2-{[(2-chlorophenyl)methyl](naphthalene-1-)sulfonamido}-N-hydroxypropanamide] stands 8 nM; under `CC(C(=O)O)N(Cc1ccccc1Cl)S(=O)(=O)c1cccc2ccccc12` (configuration not stated) [2-{[(2-chlorophenyl)methyl](naphthalene-1-)sulfonamido}propanoic acid], 1600 nM.
`CC(C(=O)NO)N(Cc1ccccc1Cl)S(=O)(=O)c1ccc2ccccc2c1` (configuration not stated) [2-{[(2-chlorophenyl)methyl](naphthalene-2-)sulfonamido}-N-hydroxypropanamide] showed a Ki of 9 nM.
In turn, `CC(C(=O)O)N(Cc1ccccc1Cl)S(=O)(=O)Cc1ccccc1` (configuration not stated) [2-{[(2-chlorophenyl)methyl](phenylmethane)sulfonamido}propanoic acid] had a Ki (pH 7.5, 25 °C) of 16000 nM.
`CC(C(=O)O)N(Cc1ccccc1Cl)S(=O)(=O)c1cccc2cccnc12` (configuration not stated) [2-{[(2-chlorophenyl)methyl](quinoline-8-)sulfonamido}propanoic acid] displayed a Ki of 2000 nM.
Same read-out and setting: the result for `CC(C(=O)NO)N(Cc1ccccc1Cl)S(=O)(=O)c1cccs1` (configuration not stated) [2-{[(2-chlorophenyl)methyl](thiophene-2-)sulfonamido}-N-hydroxypropanamide] reads 11 nM; that for `CC(C(=O)O)N(Cc1ccccc1Cl)S(=O)(=O)c1cccs1` (configuration not stated) [2-{[(2-chlorophenyl)methyl](thiophene-2-)sulfonamido}propanoic acid], 2400 nM; that for `CC(C(=O)NO)N(Cc1ccccc1Cl)S(=O)(=O)C(Cl)(Cl)Cl` (configuration not stated) [2-{[(2-chlorophenyl)methyl](trichloromethane)sulfonamido}-N-hydroxypropanamide], 71 nM.
Take `CC(C(=O)O)N(Cc1ccccc1Cl)S(=O)(=O)C(Cl)(Cl)Cl` (configuration not stated) [2-{[(2-chlorophenyl)methyl](trichloromethane)sulfonamido}propanoic acid]: the Ki (pH 7.5, 25 °C) worked out at 5200 nM.
The molecule `CC(C(=O)NO)N(Cc1ccccc1Cl)S(=O)(=O)C(F)(F)F` (configuration not stated) [2-{[(2-chlorophenyl)methyl](trifluoromethane)sulfonamido}-N-hydroxypropanamide] showed a Ki of 76 nM.
For `CC(C(=O)O)N(Cc1ccccc1Cl)S(=O)(=O)C(F)(F)F` (configuration not stated) [2-{[(2-chlorophenyl)methyl](trifluoromethane)sulfonamido}propanoic acid], under “pH 7.5, 25 °C”, the affinity, expressed as Ki, was 3300 nM.
On to `Cc1ccccc1S(=O)(=O)NC(=O)N(Cc1ccccc1Cl)C(C)C(=O)NO` (configuration not stated) [2-{[(2-chlorophenyl)methyl]({[(2-methylbenzene)sulfonyl]carbamoyl})amino}-N-hydroxypropanamide], for which affinity was put at a Ki of 10 nM.
Same read-out and setting: the result for `Cc1ccccc1S(=O)(=O)NC(=O)N(Cc1ccccc1Cl)C(C)C(=O)O` (configuration not stated) [2-{[(2-chlorophenyl)methyl]({[(2-methylbenzene)sulfonyl]carbamoyl})amino}propanoic acid] reads 4000 nM.
Still for that read-out and setting: under `CC(C(=O)NO)N(Cc1ccccc1Cl)C(=O)NS(=O)(=O)c1ccc(F)cc1` (configuration not stated) [2-{[(2-chlorophenyl)methyl]({[(4-fluorobenzene)sulfonyl]carbamoyl})amino}-N-hydroxypropanamide] stands 9 nM; under `CC(C(=O)O)N(Cc1ccccc1Cl)C(=O)NS(=O)(=O)c1ccc(F)cc1` (configuration not stated) [2-{[(2-chlorophenyl)methyl]({[(4-fluorobenzene)sulfonyl]carbamoyl})amino}propanoic acid], 3600 nM.
Still for that read-out and setting: the result for `Cc1ccc(S(=O)(=O)NC(=O)N(Cc2ccccc2Cl)C(C)C(=O)O)cc1` (configuration not stated) [2-{[(2-chlorophenyl)methyl]({[(4-methylbenzene)sulfonyl]carbamoyl})amino}propanoic acid] reads 4100 nM; that for `CC(C(=O)NO)N(Cc1ccccc1Cl)S(=O)(=O)c1cccc(C(F)(F)F)c1` (configuration not stated) [2-{[(2-chlorophenyl)methyl][3-(trifluoromethyl)benzene]sulfonamido}-N-hydroxypropanamide], 6 nM.
In turn, `CC(C(=O)NO)N(Cc1ccccc1Cl)S(=O)(=O)c1cccc2c(N(C)C)cccc12` (configuration not stated) [2-{[(2-chlorophenyl)methyl][5-(dimethylamino)naphthalene-1-]sulfonamido}-N-hydroxypropanamide] showed a Ki of 10 nM.
The same measure, in the same setting: the result for `CC(C(=O)NO)N(Cc1ccccc1Cl)C(=O)Nc1ccc(F)cc1F` (configuration not stated) [2-{[(2-chlorophenyl)methyl][(2,4-difluorophenyl)carbamoyl]amino}-N-hydroxypropanamide] reads 14 nM; that for `CC(C(=O)O)N(Cc1ccccc1Cl)C(=O)Nc1ccc(F)cc1F` (configuration not stated) [2-{[(2-chlorophenyl)methyl][(2,4-difluorophenyl)carbamoyl]amino}propanoic acid], 5500 nM.
Molecule `CC(C(=O)NO)N(Cc1ccccc1Cl)Sc1ccc([N+](=O)[O-])cc1[N+](=O)[O-]` (configuration not stated) [2-{[(2-chlorophenyl)methyl][(2,4-dinitrophenyl)sulfanyl]amino}-N-hydroxypropanamide] returned an inhibition constant (Ki) of 11 nM.
`CC(C(=O)O)N(Cc1ccccc1Cl)Sc1ccc([N+](=O)[O-])cc1[N+](=O)[O-]` (configuration not stated) [2-{[(2-chlorophenyl)methyl][(2,4-dinitrophenyl)sulfanyl]amino}propanoic acid] gave a Ki of 6100 nM.
On the same count and under the same terms, under `CC(C(=O)NO)N(Cc1ccccc1Cl)Sc1ccccc1[N+](=O)[O-]` (configuration not stated) [2-{[(2-chlorophenyl)methyl][(2-nitrophenyl)sulfanyl]amino}-N-hydroxypropanamide] stands 12 nM; under `CC(C(=O)NO)N(Cc1ccccc1Cl)C(=O)Nc1ccc(Cl)c(Cl)c1` (configuration not stated) [2-{[(2-chlorophenyl)methyl][(3,4-dichlorophenyl)carbamoyl]amino}-N-hydroxypropanamide], 15 nM.
The same measure, in the same setting: under `CC(C(=O)O)N(Cc1ccccc1Cl)C(=O)Nc1ccc(Cl)c(Cl)c1` (configuration not stated) [2-{[(2-chlorophenyl)methyl][(3,4-dichlorophenyl)carbamoyl]amino}propanoic acid] stands 5800 nM; under `CC(C(=O)O)N(Cc1ccccc1Cl)C(=O)Nc1ccc(F)cc1` (configuration not stated) [2-{[(2-chlorophenyl)methyl][(4-fluorophenyl)carbamoyl]amino}propanoic acid], 7400 nM.
As to `CC(C(=O)NO)N(Cc1ccccc1Cl)C(=S)NC(=O)c1ccccc1` (configuration not stated) [2-{[(2-chlorophenyl)methyl][(phenylformamido)methanethioyl]amino}-N-hydroxypropanamide], affinity was put at a Ki of 6 nM.
On the same count and under the same terms, under `CC(C(=O)O)N(Cc1ccccc1Cl)C(=S)NC(=O)c1ccccc1` (configuration not stated) [2-{[(2-chlorophenyl)methyl][(phenylformamido)methanethioyl]amino}propanoic acid] stands 900 nM.
